# In US10799511B2, “Methods for reducing or ameliorating mortality and/or morbidity due to chlorine inhalation” (dated 2020):
# Key:
# [1] = tested on: Sprague-Dawley rats exposed to chlorine; assay: Survival after severe chlorine inhalation; details: FIG. 7 legend
# [2] = tested on: animals exposed to toxic inhalational levels of chlorine; assay: Ability of therapeutic agents to stabilize and/or rescue animals exposed to toxic inhalational levels of chlorine; details: toxic/high inhalational levels of chlorine
# [3] = tested on: Rats exposed to chlorine (cortical EEG); assay: Video-electroencephalogram (EEG) after chlorine inhalation; details: midazolam IM 1 mg/kg 15 min after high dose chlorine inhalation, FIGS. 5A-5E
Compound,ability to stabilize and/or rescue chlorine-exposed animals [2],other results
Cc1ncc2n1-c1ccc(Cl)cc1C(c1ccccc1F)=NC2,beneficial effects,survival after severe chlorine inhalation (in words) [1]: improves survival; epileptiform activity (EEG) [3]: decreased epileptiform activity; epileptiform activity (EEG) ([3]; listed as Midazolam): clearly reduces epileptiform activity
Sodium Bicarbonate,ineffective,–
COc1ccccc1OCC(O)CN1CCN(CC(=O)Nc2c(C)cccc2C)CC1 (stereo not drawn),ineffective,–
O=[N+]([O-])c1nccn1CC(O)CN1CCCCC1 (stereo not drawn),ineffective,–
2-PAM,ineffective,–
CN1[C@@H]2CC[C@H]1C[C@@H](OC(=O)C(CO)c1ccccc1)C2 (stereo partly drawn),beneficial effects,–
CN1[C@@H]2C[C@@H](OC(=O)[C@H](CO)c3ccccc3)C[C@H]1C1OC12 (stereo partly drawn),beneficial effects,–
Bosantan,ineffective,–
Racemic epinephrine,ineffective,–
CC(CCc1ccc(O)cc1)NCCc1ccc(O)c(O)c1 (stereo not drawn),ineffective,–
Cobinamide,ineffective,–
"manganese(III)meso-tetrakis(N,N′-diethyl-1,3-imidazolium-2-yl)porphyrin",ineffective,–
